# Experimental data reported in US20100055065A1, “AGENT FOR INHIBITING PRODUCTION OF HEPATITIS C VIRUS AND ITS USE” (MIYAZAKI PREFECTURAL INDUSTRIAL SUPPORT FOUNDATION, priority 2008, published 2010).
# Tested on: HCV replicon cells (human hepatoma Huh-7)
# Experiment: Cytotoxicity test (Cell Counting Kit-8)
# Type: cell-based
# Details: Table 1
# Method: The cytotoxicity of the samples was measured by Cell Counting Kit-8 (CCK-8; Dojindo Molecular Technologies) according to the manufacture's instructions. Briefly, 10 μl/a well of CCK-8 reagent were added to the HCV replicon cells cultured in a 96-well plate and then incubated at 37° C. for 60 min. The absorbance of each well was measured at 450 nm with a reference wavelength at 650 nm using an Emax Precision microplate reader (Molecular Devices Inc.). Cell viability was calculated as relative index of control cells and effects of samples and was expressed as the concentration of samples required for 50% cytotoxicity of the cells (CC50).
substance,measurement,value
Catechin,Cytotoxicity CC50,100.4 µg/mL
